Laboratory results taken from patent US20170246137A1, “SULFESTROL FOR TREATING CANCER” (CHAMAELEO PHARMA BVBA, priority 2012, published 2017).

Experiments:
Test in all cases: In vitro direct cytotoxicity, Cell titer Blue viability, 72 hrs
LNCaP = format: cell-based
Method: (§1) Cells were harvested, washed, re-suspended into growth medium and counted.
(§2) Stocks of all compounds were then serially diluted. […] Positive control was Taxotere. Taxotere was diluted in 100% DSMO to give a stock concentration of 1 mM. Stock was serially diluted. Final concentrations to which cells were exposed were 1000, 333.3, 111.1, 37.0, 12.3, 4.1, 1.4, 0.5, and 0.2 nM.

DU-145 = format: cell-based
Method: as §1, §2

MCF7 = system: MCF7
Method: (§3) Cells were maintained in vitro in RPMI 1640 containing 10% (v/v) heat inactivated FBS and 2 mM L-glutamine (growth media) at 37° C. in 5% CO2 and humidified conditions. Cells were harvested, washed, resuspended into growth medium and counted. The cells were re-suspended into assay media (RPMI 1640+1% (v/v) heat inactivated FBS+ and 2 mM L-glutamine) at 0.5-1×10^5 cells/ml (dependent upon cell type) and plated into 96-well assay plates (Corning, black-wall plates) in 50 ul/well aliquots.
(§4) Plates were incubated overnight at 37° C. in 5% humidified CO2 prior to addition of the compounds. […] Stocks of all compounds were then serially diluted. Final concentrations to which cells were exposed were 300, 150, 75, 37.5, 18.75, 9.4, 4.7, 2.3, 1.2, 0.6 μM. Positive control was Cisplatin. Cisplatin was diluted in 1% FBS media to give a stock concentration of 1 mM. Cisplatin stock was then serially diluted. Final concentrations to which cells were exposed were 100, 50, 25, 12.5, 6.3, 3.1, 1.6, 0.8, 0.4, 0.2 μM.
(§5) Plates were incubated for 72 hrs at 37° C. in 5% humidified CO2 after addition of the compounds. Viability of the cells was assessed with the Cell titer Blue™ (Promega) assay. 10 μl of Cell titer Blue™ reagents was added to each test/blank well. Plates were incubated 3 h at 37° C. in 5% humidified CO2 prior to analysis. Fluorescence was measured with a Flex II station plate reader. […]

MDA-MB-231 = settings: MDA-MB231
Method: as §3, §4, §5

Measured: cytotoxicity in vitro (in words)

4,4′-(hex-3-ene-3,4-diyl)bis(4,1-phenylene) disulfate [Di-Sulfestrol]
inactive: all assays above
